## Ab-14 heavy chain CDR variants: yeast mating affinities

Reference: Li et al. 2023, doi:10.1038/s41467-023-39022-2. File: FLAb, binding data.

Target: peptide PDVDLGDISGINAS, taken from heptad repeat 2 (HR2) of SARS-CoV-2 spike.

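Phage display of a naive human antibody library on the peptide gave the parent. The variants were designed computationally from a first round of random CDR variants and then made and measured. Group labels follow the data file (Ctrl: baseline library sampled from a position-specific scoring matrix, with some repeated check sequences; Rand: our label for a block that the file lists under HC and that is probably the random mutants of the ten best first-round binders; En: ensemble of fine-tuned language models; GP: Gaussian process model; GPLM: also part of the Gaussian process libraries; HC: hill climbing; Gen: genetic algorithm; Gibbs: Gibbs sampling; a sequence that several methods proposed may carry one label only). The scFvs were displayed on barcoded MATa yeast, the peptide on MATalpha yeast. Mating (16 h, 30 °C) was followed by selection of diploids and sequencing of their barcodes. Each replicate has its own calibration line, from reference interactions of the BCL2 family. Each pool was mated in six replicate cultures.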

Parent: Ab-14, a human scFv built as VH, the linker GGGGSGGGGSGGGGS, VL. Only the CDRs of the heavy chain vary.
VH: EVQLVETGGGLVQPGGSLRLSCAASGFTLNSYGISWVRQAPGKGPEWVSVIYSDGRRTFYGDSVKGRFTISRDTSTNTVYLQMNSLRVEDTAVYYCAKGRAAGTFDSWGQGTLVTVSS
VL: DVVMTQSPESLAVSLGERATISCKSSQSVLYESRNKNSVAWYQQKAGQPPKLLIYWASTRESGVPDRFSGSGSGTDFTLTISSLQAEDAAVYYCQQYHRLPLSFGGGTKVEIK

Variants are written as CDR1, CDR2 and CDR3 of the heavy chain (limits as in the source). Parent: GFTLNSYGIS, VIYSDGRRTFYGDSVK, GRAAGTFDS.
Each Kd is an estimate from the mating assay, the geometric mean of the replicates in which the pair was seen; lower is stronger.
An entry "no signal" has no value in the source: the pair was not observed among the diploids in any replicate. This suggests poor binding but is not conclusive.
A sequence that the file lists under several names has all its replicates pooled.
Of ten entries with the parent sequence, four were seen in most replicates (averages 2.2 nM to 240 nM), three in one and three in none, so single entries are noisy.
Background: pairings of all heavy chain designs with three empty control strains gave a value in 1% of cases (median 120 nM, 5th percentile 7.0 nM). Values in that range, when seen in few replicates, are hard to tell from nonspecific mating. Also given: how often the same scFv was detected with the empty control strains.
In the paper, a design with two or fewer of six values counts as a poor binder.
The range of this assay differs from that of the first round, and the authors advise against merging the two.

CDR-H1,CDR-H2,CDR-H3,group,Kd,seen in,control signals
KFTLNEYGIS,VIYSDGRRTFYVDSVK,GRCAGTFDS,GP_HC,no signal,0/6,0/18
GFVLNEYGIS,VIYSDGRRTFYQDSVK,GKAAGTFDS,GP_Gibbs,10 nM,6/6,0/18
GFDLQEYGIS,VIYADGKRTKVTDNVK,GTLTGTAVT,En_Gibbs,no signal,0/6,0/18
GFDLNSYGIS,VIYSDGRRTFYGDSVK,GRTAQWFNS,Rand,180 nM,1/6,0/18
GFDLNEYGIS,VIYADGRRTFYADNVK,GEVAGTFVV,En_HC,1.1 nM,6/6,0/18
GFDLNEYGIS,VIYADGRRTFYSDSVK,GEAAGTFVV,En_HC,9.2 nM,6/6,0/18
GFTLNEYGIS,VIYSDGRRSFYGDSVK,GHAAGTFDN,GP_HC,22 nM,6/6,0/18
GDTLDSYGIS,VIYSDGRRTFYIDSVK,GRAAGTFDS,Ctrl,4.8 nM,2/6,0/18
GFDLNEYGIS,VIYADGKRTFYADSVK,GKIAGTFNV,En_HC,400 pM,6/6,0/18
GFQLDEYGIS,VIYADGQRSAYSENVK,GQHGGMTVS,En_Gibbs,no signal,0/6,0/18
GEDLNSYGIS,VIYSDGRRTFYGDSVK,GRTAGTFDS,GP_Gen,15 nM,6/6,0/18
GFHLNSYGIS,VIYSDGRRTFYQDSVK,GREAGTFDA,GP_Gibbs,1.3 nM,6/6,0/18
GFDLNEYGIS,VIYADGSRTFYADSVK,GQTAGTFDV,En_HC,no signal,0/6,0/18
GFDLMEYGIS,VIYADGMRQAYANKVK,GGITDSGLI,En_Gibbs,no signal,0/6,0/18
GFDLNEYGIS,VIYADGRRTFYADSVK,GETAGTFDQ,En_HC,340 pM,6/6,0/18
GNNLDEYGIS,VIYADGVRTAYAQRVK,GETGDNAMT,En_Gibbs,no signal,0/6,0/18
GFTLNSYGIS,VIYSDGYRTFYGDSVK,GRAAGTFSS,Ctrl,no signal,0/6,0/18
GFTLSSYGIS,VIYSDGRRTFYGDSVK,GRAAGTFDD,Ctrl,330 nM,1/6,0/18
GFWLNSYGIS,VIYSDGRRTFYDDSVK,GQTAGTFDS,GPLM_HC,38 nM,6/6,1/18
GFELNSYGIS,VIYSDGRRTFYKDSVK,GKAAGTFDS,GP_Gen,6.9 nM,6/6,0/18
GFDLNEYGIS,VIYADGRRTFYTDNVK,GQNAGTFDE,En_HC,270 pM,6/6,0/18
GFDLDEYGIS,VIYADGQRKAYADSVK,GENAGTFDV,En_Gen,350 pM,6/6,1/18
GFQLDEYGIS,VIYADGMRQSYCENVK,GVHGCTFGL,En_Gibbs,no signal,0/6,0/18
GFDLNEYGIS,VIYADGRRTFYADSVK,GEEAGTFDF,En_HC,840 pM,6/6,0/18
GFTLDSYGIS,VIYSDGRRTFYGDSVK,GRAAGTFVR,GP_HC,no signal,0/6,0/18
MFSLNSYGIS,VIYSDGRRTFYGDSVK,GRTAGTFDS,GPLM_Gen,69 nM,3/6,0/18
GFSLNNYGIS,VIYSDGRRTFYGDSVK,GRTAGTFFS,GP_Gibbs,no signal,0/6,0/18
GYDLVEYGIS,VIYADGIRTVVSDDVK,GNVAGTIFV,En_Gibbs,no signal,0/6,0/18
GFDLEKYGIH,VIYADGMRASYSDAVK,GDLSGTLYI,En_Gibbs,no signal,0/6,0/18
GFDLEKYGIS,VIYADGRRSVYADDVK,GMLGATNGY,En_Gibbs,no signal,0/6,0/18
GFDLNEYGIS,VIYADGRRTYYADSVK,GNQAGTFIL,En_HC,4.8 nM,6/6,0/18
GFTLNSYGIS,VIYSDGRRTFYGDSVK,GRAASTFDV,Ctrl,no signal,0/6,0/18
GFDLNEYGIS,VIYADGMRTSYADSVK,GSNAGTFDV,En_Gen,110 pM,6/6,0/18
GFTLNSYGIS,VIYADGRRTFYGDSVK,GRAAGTNKI,GPLM_HC,3.9 nM,6/6,0/18
GFDLNEYGIS,VIYADGRRTFYADSVK,GHVAGTFVE,En_HC,430 pM,6/6,1/18
GFDLDEYGIS,VIYADGQRTFYADSVK,GNVAGTFDV,En_Gen,490 pM,6/6,0/18
GFSLNEYGIS,VIYSDGRRTFYMDAVK,GRTAGTFDS,GP_Gibbs,3.1 nM,6/6,0/18
GFDLEDYGIS,VIYADGMRTAYADSVK,GENAGTFDL,En_Gen,no signal,0/6,0/18
GFTLNDYGIS,VIYSDIRRTFYIDSVK,GNEMGTFDL,Ctrl,no signal,0/6,1/18
GFDLNEYGIS,VIYADGMRTAYVDSVK,GEVAGTFDI,En_Gen,230 pM,6/6,0/18
GFNLDEYGIS,VIYADGVRTFYADSVK,GQVAGTFDV,En_HC,220 pM,6/6,0/18
GFGLNEYGIS,VIYSDGRRTFYHDSVK,GKAAGTFDT,GP_Gibbs,6.7 nM,6/6,0/18
GFDLNEYGIS,VIYADGVRTAYANSVK,GEVAGTFDL,En_Gen,530 pM,6/6,0/18
GFDLNEYGIS,VIYADGRRTFYSDSVK,GTIAGTFIQ,En_HC,1.4 nM,6/6,0/18
GFDLNEYGIS,VIYADGRRTFYADSVK,GQVAGTFDI,En_HC,310 pM,6/6,0/18
GFDLDEYGIS,VIYADGRRTFYQDSVK,GNVAGTFDL,En_HC,250 pM,6/6,0/18
GFDLNEYGIS,VIYADGKRTAYADDVK,GETAGTFDI,En_Gen,120 pM,6/6,0/18
GFTLNSYGIS,VIYADGRRTFYGDQVK,GKAAGTFDS,GPLM_Gen,4.6 nM,6/6,0/18
GFSLNSYGIS,VIYSDGRRTFYSDSVK,GNAAGTFDS,GPLM_Gen,810 pM,6/6,0/18
GFDLNEYGIS,VIYADGRRTAYADSVK,GNNAGTFIS,En_HC,62 nM,4/6,1/18
GVNLDEYGIS,VIYADGVRQHYTDSVK,GTEGDFGVV,En_Gibbs,320 pM,6/6,0/18
GFDLNEYGIS,VIYADGRRTSYKDSVK,GEAAGTFDV,En_HC,760 pM,6/6,1/18
GFTLNSYGIS,VIYSDGRRTFYKDSVK,GREAGTFDT,GPLM_Gen,2.9 nM,6/6,0/18
GFDLNSYGIS,VIYSDGRRTFYGDSVK,GRQAGTFDE,GP_Gen,9.4 nM,4/6,0/18
GFTLNSYGIS,VIYSDGRRTFYADSVK,GREAGTFDK,GPLM_Gibbs,5.9 nM,6/6,1/18
GFTLNSYGIS,VIYSDGRRTFYGDSVK,GMAAGTFKS,Ctrl,no signal,0/6,0/18
GFDLDEYGIS,VIYADGMRTAYIDSVK,GNVAGTFDI,En_Gen,210 pM,6/6,0/18
GDDLEDYGIS,VIYADGRRTAYQESVK,GLYAGYIDV,En_Gibbs,no signal,0/6,0/18
GFDLDEYGIS,VIYADGMRTFYADSVK,GNEAGTFDV,En_Gen,660 pM,6/6,0/18
GFNLNSYGIS,VIYADGRRTFYGDSVK,GREAGTFDS,Ctrl+GP_Gen,630 pM,12/12,0/36
GKQLEEMGIS,VIYADGVRTAYSSKVK,GINGDFFDV,En_Gibbs,47 nM,1/6,1/18
GFELNTYGIS,VIYSDGRRTFYGDSVK,GQAAGTFDS,GP_Gen,28 nM,6/6,0/18
GFDLNEYGIS,VIYADGQRTAYIDSVK,GNVAGTFDI,En_Gen,210 pM,6/6,0/18
GFTLNNTGIS,VIYSDGRRKFYGDQVK,GRAAGTFDS,Ctrl,no signal,0/6,1/18
GFTLNSYGIS,VIYSDGRRTQYSDSVK,GSAAGTFFS,Ctrl,110 nM,2/6,0/18
GFTLNQYGIS,VIYSDGERTFYGDSVK,GRNCGTFDS,Ctrl,no signal,0/6,0/18
GFVLDEYGIS,VIYADGKRQVYQDKVK,GKGTGNFDT,En_Gibbs,no signal,0/6,0/18
GFDLNTYGIS,VIYSDGRRTAYGDSVK,GRAAGTFDS,GP_Gen,690 pM,6/6,0/18
GFDLNEYGIS,VIYADGIRTAYADSVK,GEVAGTFDV,En_Gen,170 pM,6/6,0/18
HFELNSYGIS,VIYSDGRRTFYIDSVK,GRQAGTFDS,GP_Gibbs,37 nM,2/6,0/18
GFDLNEYGIS,VIYADGKRTAYADDVK,GNQAGTFDV,En_Gen,1.6 nM,6/6,0/18
GFTLNETGIS,VIYSDGRETFYGDSVK,GRAAVTFDQ,Rand,no signal,0/6,0/18
GFDLNEYGIS,VIYADGRRTYYIDSVK,GEIAGTFNV,En_HC,730 pM,6/6,0/18
KFSLNSYGIS,VIYSDGRRTFYEDSVK,GRTAGTFDS,GP_Gibbs,240 nM,5/6,0/18
GFELNSYGIS,VIYSDGRRTFYGDSVK,GVTAGTFDT,GP_Gen,560 pM,6/6,0/18
GFDLNEYGIS,VIYADGMRKAYSDSVK,GENAGTFDV,En_Gen,260 pM,6/6,1/18
GFELNSYGIS,VIYSDGRRTFYGDSVK,GTNAGTFDS,GP_Gen,1.9 nM,6/6,0/18

Extract of 4 entries:

CDR-H1,CDR-H2,CDR-H3,group,Kd,seen in,control signals
GYDLVEYGIS,VIYADGIRTVVSDDVK,GNVAGTIFV,En_Gibbs,no signal,0/6,0/18
MFSLNSYGIS,VIYSDGRRTFYGDSVK,GRTAGTFDS,GPLM_Gen,69 nM,3/6,0/18
GFTLSSYGIS,VIYSDGRRTFYGDSVK,GRAAGTFDD,Ctrl,330 nM,1/6,0/18
GDTLDSYGIS,VIYSDGRRTFYIDSVK,GRAAGTFDS,Ctrl,4.8 nM,2/6,0/18